Read-outs that look alike come from different tables or passages of the source. Marks after values point to notes of the source that are not given here.
Legend:
[1] = uncooked, maize porridge meal, 4 mg Fe, young women n=20, geometric mean
[2] = Human study 2: iron absorption from stable-isotope labeled wheat bread test meals; details: wheat bread baked at 190° C. for 20 minutes, 4 mg Fe, young women n=24; geometric mean (95% CI)

## ferrous sulfate [Non-Encapsulated Fe]
[1]
  Fractional Fe Absorption: 3.36 (1.48, 7.64)^a %
[1]; listed as free uncooked iron
  Fractional Fe Absorption: 3.36%
[2]
  fractional iron absorption (FIA): 19.2 (15.3, 24.29) %

Reference: patent US20190200664A1, “WATER AND FAT SOLUBLE MICRONUTIENT STABILIZED PARTICLES” (Massachusetts Institute of Technology, priority 2018, published 2019)
